Target: D(2) dopamine receptor (Homo sapiens, UniProt P14416)

By UniProt entry, the sequences of proteins in these tests, tags left out.
UniProt P14416, whole entry: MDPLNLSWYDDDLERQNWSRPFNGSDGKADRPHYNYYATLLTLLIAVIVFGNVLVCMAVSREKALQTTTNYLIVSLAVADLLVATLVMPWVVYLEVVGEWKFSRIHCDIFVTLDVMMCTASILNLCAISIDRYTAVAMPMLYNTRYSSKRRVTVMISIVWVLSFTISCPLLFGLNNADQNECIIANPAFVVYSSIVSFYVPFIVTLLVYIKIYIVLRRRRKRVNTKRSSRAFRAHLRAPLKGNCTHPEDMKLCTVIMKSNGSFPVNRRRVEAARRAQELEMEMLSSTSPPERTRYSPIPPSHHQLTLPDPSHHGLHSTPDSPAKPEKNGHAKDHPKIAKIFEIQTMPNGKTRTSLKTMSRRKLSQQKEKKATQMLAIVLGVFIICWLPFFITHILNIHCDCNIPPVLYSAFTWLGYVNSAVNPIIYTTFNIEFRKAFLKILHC

O=C(NCCCCN1CCN(c2cccc(Cl)c2Cl)CC1)c1ccc(I)cc1
Ki: 39.3 nM

Reference: ChEMBL document CHEMBL1145183, “Novel heterocyclic trans olefin analogues of N-{4-[4-(2,3-dichlorophenyl)piperazin-1-yl]butyl}arylcarboxamides as selective probes with high affinity for the dopamine D3 receptor” (J Med Chem, 2005)
